Source: publication PMC8817233 (Journal of medicinal chemistry, 2021)

Test system: HEK293, SW480 and Wnt 3a-stimulated MDA-MB-468 cells
Details: up to 25 μM, all three cell lines, 24 h

CC(C)(Oc1cccc(N2CCC[C@@H](C(=O)N(Cc3ccc(-c4cn[nH]c4)cc3)C3CC3)C2)c1)C(=O)N1CCNCC1.Cl [ZW4864, (R)-N-(4-(1H-Pyrazol-4-yl)benzyl)-N-cyclopropyl-1-(3-((2-methyl-1-oxo-1-(piperazin-1-yl)propan-2-yl)oxy)phenyl)piperidine-3-carboxamide]
FOPFlash luciferase inhibitory activity: did not show obvious inhibitory activity
